System: TSH antibody (commercial RIA kit)
Test: Competitive RIA for thyroid stimulating hormone (TSH), standard and adapted
Type: binding
Experimental: A commercial 125-iodine RIA kit for determining TSH was obtained from American Bioclinical (Portland, Oreg.) and adapted to the separation and detection methods of the present invention. All assay reactants were used according to the manufacturer's instructions except that reactant volumes were decreased four-fold, and S. aureus (25 L of a 10% w/v suspension per test) was substituted for the "second antibody" precipitating solution. The adapted test was performed using 0.4 mL microcentrifuge tubes containing 0.25 mL butyl phthalate cushions.

TSH: thyroid stimulating hormone standards of a commercial RIA kit
% BOUND (adapted test, 33 OU/mL in RIA, 2 hours 37 C): 7.2%
% BOUND (standard test, 25 OU/mL in RIA, 4 hours room temperature): 15.2%
% BOUND (standard test, 33 OU/mL in RIA, 4 hours room temperature): 12.0%
% BOUND (standard test, 50 OU/mL in RIA, 4 hours room temperature): 7.9%

Reference: patent publication US6121055A, “Methods and devices for conducting specific binding assays” (priority 1995, dated 2000)
